Source: ChEMBL document CHEMBL1141954, “Indole-2-carboxamidines as novel NR2B selective NMDA receptor antagonists” (Bioorg Med Chem Lett, 2005)

Target: Glutamate NMDA receptor
Assay: Inhibition of NMDA-evoked intracellular calcium increase in rat cortical cells
Assay type: functional, cell-based

Question: Which IC50 does the source give for O=C(/C=C/c1ccc(O)cc1)N1CCC(Cc2ccccc2)CC1 here?
Answer: 131 nM
